From US6998423B2, “Prevention of loss and restoration of bone mass by certain prostaglandin agonists” (priority 1996, dated 2006) come the findings set out here.

Protein sequences, listed by entry. Tags and fused reporters are not part of them. Lines headed by an entry give the natural chain unless they say otherwise; changes in a name come on top.
UniProt P43116: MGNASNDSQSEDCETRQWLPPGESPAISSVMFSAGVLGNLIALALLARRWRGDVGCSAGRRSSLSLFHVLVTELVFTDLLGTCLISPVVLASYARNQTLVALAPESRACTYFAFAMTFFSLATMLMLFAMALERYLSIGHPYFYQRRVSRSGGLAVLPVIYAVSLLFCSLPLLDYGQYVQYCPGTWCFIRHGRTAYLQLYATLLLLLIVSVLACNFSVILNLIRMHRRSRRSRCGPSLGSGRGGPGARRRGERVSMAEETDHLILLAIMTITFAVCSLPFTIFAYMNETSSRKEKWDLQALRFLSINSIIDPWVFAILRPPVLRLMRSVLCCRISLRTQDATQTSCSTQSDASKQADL

This experiment concerns the target human EP2 receptor (Homo sapiens, UniProt P43116). The experiment can be described thus: Scatchard analysis of specific [3-H]PGE2 binding in 293-S cell line stably overexpressing recombinant human EP2 receptor. The settings on record: read-out: Kd for PGE2 (EP2), 293-S/EP2 line selected for compound screening, approximately 338,400 receptors per cell.

As for `CCCCC[C@H](O)/C=C/[C@H]1[C@H](O)CC(=O)[C@@H]1C/C=C\CCCC(=O)O` [PGE2, prostaglandin E2], the Kd was found to be 0.012 µM.
